Data as given in ChEMBL document CHEMBL1141618, “Evaluation of a series of bicyclic CXCR2 antagonists” (Bioorg Med Chem Lett, 2008).

Test system: human plasma (Homo sapiens)
Assay: Protein binding as % unbound in human plasma

Structure (SMILES): C[C@H](CO)Nc1nc(SCc2cccc(F)c2F)nc2[nH]c(=O)c(C#N)cc12
- fraction unbound: 0.017

Structure (SMILES): C[C@H](CO)Nc1nc(SCc2ccccc2)nc2[nH]c(=O)sc12
- fraction unbound: 0.0027
